# Data reported in PubChem BioAssay AID798 (PCMD, 2007).
# Amino acid sequences for entries named in this document (tags omitted).
# UniProt P03951, whole entry, looked up: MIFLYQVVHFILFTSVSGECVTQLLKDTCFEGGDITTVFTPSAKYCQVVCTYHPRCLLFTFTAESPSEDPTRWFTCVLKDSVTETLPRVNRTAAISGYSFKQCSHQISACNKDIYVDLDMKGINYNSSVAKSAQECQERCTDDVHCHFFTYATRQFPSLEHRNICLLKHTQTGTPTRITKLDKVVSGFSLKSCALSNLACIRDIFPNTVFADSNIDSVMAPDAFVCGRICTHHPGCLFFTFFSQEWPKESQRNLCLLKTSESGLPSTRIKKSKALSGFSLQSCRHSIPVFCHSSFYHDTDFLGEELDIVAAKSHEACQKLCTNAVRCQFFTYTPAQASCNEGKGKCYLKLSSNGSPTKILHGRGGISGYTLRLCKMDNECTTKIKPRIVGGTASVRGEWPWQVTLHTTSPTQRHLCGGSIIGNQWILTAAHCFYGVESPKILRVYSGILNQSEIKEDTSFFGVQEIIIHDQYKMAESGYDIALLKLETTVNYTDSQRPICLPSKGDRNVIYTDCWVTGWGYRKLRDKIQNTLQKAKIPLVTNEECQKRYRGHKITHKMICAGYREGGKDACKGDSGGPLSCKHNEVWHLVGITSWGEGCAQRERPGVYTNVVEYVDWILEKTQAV
# Several values for one entry are separate records, joined by “and”; a condition that tells them apart may be missing. Identical values can stand only once. The entries are a selection whose mix differs from that of the whole data set. Activity calls are given as the source filed them.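 How the source made its calls: active means inhibition of at least 40%; inactive means inhibition below 40%.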
# Target: Coagulation factor XI (Homo sapiens) (UniProt P03951)
# Experiment: human FXIa protease inhibitors, primary screen, biochemical, 1536-well (AID 798);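 further: fluorescence of freed AMC excited at 355 nm; 0% = enzyme without compound and 100% = no enzyme blank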
# Conditions: purified FXIa, Boc-Glu-Ala-Arg-AMC fluorogenic substrate; at 5 µM; hits give high values
row,SMILES,inhibition
1,CC(=O)Nc1ccc([As](=O)(O)O)cc1,inactive: 4.28%
2,O=C(O)c1ccccc1[As](=O)(O)O,inactive: 9.98%
3,O=P(Nc1nc2ccc(Cl)cc2s1)(c1ccccc1)c1ccccc1,inactive: 0.05%
4,Cc1cc(SC(NC(=O)c2ccc(F)cc2)C(Cl)(Cl)Cl)ncn1 (stereo not drawn),inactive: -2.86%
5,CCOP(=O)(Nc1ccccc1)OCC,inactive: 1.78% and inactive: 3.19%
6,Cc1ccc(NP(=O)(Oc2ccccc2F)Oc2ccccc2F)nc1,active: 46%
7,CCN(N=Nc1nonc1N)c1nonc1N,inactive: -1.51%
8,Nc1cccc2ccc([As](=O)(O)O)cc12,inactive: 3.44%
9,NC(=O)c1cc([N+](=O)[O-])cc([N+](=O)[O-])c1N,inactive: -6.93%
10,Cc1ccc(N/C(=N/P(=O)(N2CCOCC2)N2CCOCC2)N2CCOCC2)cc1,inactive: -1.1%
11,COc1ccccc1OP(=O)(Nc1ccc(C)cn1)Oc1ccccc1OC,inactive: -1.61%
12,Cc1ccc(OP(=O)(Nc2nccs2)Oc2ccc(C)cc2)cc1,inactive: -0.16%
13,CN1CCCC(OC(=O)C(c2ccccc2)c2ccccc2)C1 (stereo not drawn),inactive: 18%
14,Clc1ccc(Cl)c(NC2=NCC(CBr)S2)c1 (stereo not drawn),inactive: -1.66%
15,Nc1cc(N)c2nonc2c1[N+](=O)[O-],inactive: 2.46%
16,CC(C)CC(=O)NC(Sc1ccc(Cl)cc1)C(Cl)(Cl)Cl (stereo not drawn),inactive: 2.71%
17,Oc1ccccc1CNc1ccccn1,inactive: 4.36%
18,O=C(NC(Sc1ccncn1)C(Cl)(Cl)Cl)c1ccccc1 (stereo not drawn),inactive: -3.84%
19,Cc1c2non([O-])c-2c(C)[n+](=O)[n+]1[O-],inactive: 12.1%
20,COc1ccc(C2=NCC(CBr)S2)cc1 (stereo not drawn),inactive: -2.26%
21,CC(=O)N1C2C3N(C(C)=O)C1C1N(C(C)=O)C(C(N1C(C)=O)N3C(C)=O)N2C(C)=O,inactive: 7.38%
22,O=[N+]([O-])c1cccc2n[nH]nc12,inactive: 5.36%
23,Cc1ccc(NP(=O)(Oc2ccccc2)Oc2ccccc2)nc1,inactive: -7%
24,O=[N+]([O-])c1cc([N+](=O)[O-])c(CCNc2ccccc2)c([N+](=O)[O-])c1,inactive: -1.67%
25,CCc1nc2c(n1)c1c(non1O)c1c2no[n+]1[O-],inactive: 20.2%
26,Nc1ccc([As](=O)(O)c2ccc(N)cc2)cc1,inactive: 9.99%

row,SMILES,inhibition
1,C[N+]1=C2C=CC=CC=C2SC12C([N+](=O)[O-])=CC([N+](=O)[O-])=C[C-]2[N+](=O)[O-] (stereo not drawn),inactive: 3.09%
2,CCN(/C(=N/P(=O)(N1CCOCC1)N1CCOCC1)N1CCOCC1)c1ccc(OC)cc1,inactive: -1.6%
3,CC(C)=N/N=C(\N)N[N+](=O)[O-],inactive: -2.23%
4,CN(C)C(=O)OCCc1n(C)cc[n+]1C,inactive: -5.75%
5,CC1CCN(C(=O)Oc2c(Cl)cc(Cl)c3cccnc23)CC1,inactive: 1.02%
6,O=C(Nc1cc([As](=O)(O)O)ccc1O)c1ccccc1,inactive: -8.75%
7,CC(C)(C)C(=O)NC(Sc1ccncn1)C(Cl)(Cl)Cl (stereo not drawn),inactive: -4.26%
8,O=[N+]([O-])c1ncn(CCn2ncnc2[N+](=O)[O-])n1,inactive: -0.63%
9,O=[N+]([O-])c1cccc(NC2=NCC(CBr)S2)c1 (stereo not drawn),inactive: 1.86%
10,O=C(O)CNc1ccc([As](=O)(O)O)cc1,inactive: -2.83%
11,O=P(Nc1ccccn1)(c1ccc(Br)cc1)c1ccc(Br)cc1,inactive: -1.2%
12,O=P(Nc1nc2ccccc2s1)(c1ccccc1)c1ccccc1,inactive: -3.04%
13,C[C@H]1OP(=O)(Oc2ccccc2)[C@H](O)[C@H](O)[C@H]1N=[N+]=[N-] (stereo partly drawn),inactive: -0.05%
14,CC(=O)NC(SC(=S)N(C)C)C(Cl)(Cl)Cl (stereo not drawn),inactive: 5.03%
15,O=[N+]([O-])c1ncn(CCn2cnc([N+](=O)[O-])n2)n1,inactive: -2.15%
16,O=[As](O)(c1ccccc1)c1ccc(O)cc1,inactive: -8.28%
17,C(Cc1nn[nH]n1)Cc1nn[nH]n1,inactive: 3.72%
18,Nc1ccc([As](=O)(O)c2ccc([N+](=O)[O-])cc2)cc1,inactive: 2.05%
19,O=C(OC1CN2CCC1CC2)c1cccc(Cl)c1 (stereo not drawn),inactive: -1.23%
20,O=P(Nc1nccs1)(c1ccccc1)c1ccccc1,inactive: -2.04%
21,CC(C)C(=O)NC(Sc1ccccc1)C(Cl)(Cl)Cl (stereo not drawn),inactive: 4.16%
22,c1nnnn1CCn1cnnn1,inactive: -1.19%
23,O=P1(Nc2nc3ccc(Cl)cc3s2)COc2ccccc2O1 (stereo not drawn),inactive: 1.66%
24,CCOc1ccc(C2=NCC(CBr)S2)cc1 (stereo not drawn),inactive: -4.52%
25,CC(C)(C)C(=O)NC(Sc1ccccc1)C(Cl)(Cl)Cl (stereo not drawn),inactive: -6.31%
26,C[C@H]1OP(=O)(Oc2ccccc2)C[C@@H]2O[C@@H]21 (stereo partly drawn),inactive: 0.63%

row,SMILES,inhibition
1,C[C@@H]1C=CCP(=O)(Oc2ccccc2)O1 (stereo partly drawn),inactive: -0.77%
2,CC(=O)Nc1ccc([As](=O)(O)O)c(O)c1,inactive: -1.89%
3,CC(=O)Nc1ccc(Oc2c([N+](=O)[O-])cc([N+](=O)[O-])cc2[N+](=O)[O-])cc1,inactive: 2.69%
4,O=C(NC1CCS(=O)(=O)C1)NP(=S)(Oc1ccccc1)Oc1ccccc1 (stereo not drawn),inactive: -3.3%
5,CCNC(=S)/N=C(\N)N[N+](=O)[O-],inactive: -3.01%
6,c1ccc(-c2nn[nH]n2)c(-c2nn[nH]n2)c1,inactive: -3.92%
7,Cc1ccc(NP(=O)(Oc2cccc(C)c2)Oc2cccc(C)c2)nc1,inactive: 3.73%
8,CCOC(=O)NC(Sc1ccccc1)C(Cl)(Cl)Cl (stereo not drawn),inactive: -0.82%
9,COC(=O)c1cc2c(s1)N=C(c1ccccc1)N(C)P2(=O)N1CCOCC1 (stereo not drawn),inactive: 15.7%
10,CC(=O)NC(SC(=S)N(CC(C)C)CC(C)C)C(Cl)(Cl)Cl (stereo not drawn),inactive: 9.04%
11,Cc1ccc(OP(=O)(Nc2ccccn2)Oc2ccc(C)cc2)cc1,inactive: 4.9%
12,CCC(=O)N1C2C3N(C(=O)CC)C1C1N(C(=O)CC)C(C(N1C(=O)CC)N3C(=O)CC)N2C(=O)CC,inactive: 16.9%
13,Cc1ccccc1OP(=O)(Nc1ccccn1)Oc1ccccc1C,inactive: 2.44%
14,O=c1c2cc([N+](=O)[O-])ccc2[nH]c2c([N+](=O)[O-])cc([N+](=O)[O-])cc12,inactive: 1.6%
15,CN(C)C(=O)Oc1noc2ccccc12,inactive: 4.13%
16,CS(=O)(=O)c1cc([N+](=O)[O-])c2no[n+]([O-])c2c1,inactive: -1.27%
17,CCOP1(=S)c2c(C)nn(CCC#N)c2N=C(c2ccccc2F)N1C (stereo not drawn),inactive: 7.38%
18,O=P(Nc1nccs1)(Oc1ccccc1)Oc1ccccc1,inactive: -1.52%
19,O=P(Nc1nccs1)(c1ccccc1)c1nc2ccccc2s1 (stereo not drawn),inactive: 4.67%
20,O=C(O)COc1ccc([As](=O)(O)O)cc1[N+](=O)[O-],inactive: 3.93%
21,Nc1ccccc1[As](=O)(O)c1ccccc1,inactive: -4.87%
22,NC(=O)Nc1ccc([As](=O)(O)O)cc1,inactive: 1.6%
23,O=[N+]([O-])c1ccc2c(c1)nnn2O,inactive: 0.64%
24,CN(C(=O)Cc1ccccc1)[C@@H]1CC[C@]2(CCCO2)C[C@H]1N1CCCC1,inactive: 3.37%
25,CCOP1(=S)c2c(C)nn(CCC#N)c2N=C(c2ccc(F)cc2)N1C (stereo not drawn),inactive: -0.95%
26,O=[As](O)(O)c1cccnc1,inactive: -9.52%

row,SMILES,inhibition
1,COc1cc(C(=O)NCC2(N3CCOCC3)CCCCC2)cc(Cl)c1OC(C)C,inactive: 1.92%
2,O=C(OC1CN2CCC1CC2)c1ccc(Cl)cc1 (stereo not drawn),inactive: 3.74%
3,Cc1cccc(OCC(=O)OC2CN3CCC2CC3)c1 (stereo not drawn),inactive: 0.25%
4,O=[As](O)(c1cccc(O)c1)c1cccc(O)c1,inactive: -2.69%
5,CCCOP(=S)(Nc1nc(N)cc(=O)[nH]1)OCCC,inactive: 0.23%
6,Cc1ccc(NCCc2c([N+](=O)[O-])cc([N+](=O)[O-])cc2[N+](=O)[O-])cc1,inactive: 3.85%
7,Nc1cccc2c([As](=O)(O)O)cccc12,inactive: 4.27%
8,COc1cc(C2NCCC3(OCCO3)C2(C)C)cc(OC)c1OC (stereo not drawn),inactive: 3.26%
9,CCOP(=O)(Nc1cccc2ccccc12)OCC,inactive: -6.82%
10,CCOP(=O)(Nc1ccc(C)cn1)OCC,inactive: -0.38%
11,O=P1(Nc2ccccn2)COc2ccccc2OC1,inactive: -7.4%
12,Clc1n[nH]nc1-c1nn[nH][15n]1,inactive: 7.68%
13,CC(C)(C)C(=O)NC(Sc1ncccn1)C(Cl)(Cl)Cl (stereo not drawn),inactive: 3.27%
14,O=[As](O)(c1ccccc1Br)c1ccccc1Br,inactive: -3.77%
15,CC(C)/C=N\N=C(\N)N[N+](=O)[O-],inactive: 4.63%
16,Cc1nn(-c2ccccc2)c2c1P(=O)(N1CCOCC1)N(C)C(c1ccccc1)=N2 (stereo not drawn),inactive: -1.23%
17,CC1CCC(C(C)C)C(OP(=O)(Nc2ccccn2)c2ccccc2)C1 (stereo not drawn),inactive: -1.51%
18,O=C(/C=C/c1ccccc1)OC1CN2CCC1CC2 (stereo not drawn),inactive: -3.89%
19,CN(C)C1(CNC(=O)c2ccc(S(C)(=O)=O)cc2)CCCCC1,inactive: -2.18%
20,O=P1(Nc2ncccn2)COc2ccccc2OC1,inactive: -4.76%
21,Cc1ccc(OCC(=O)OC2CN3CCC2CC3)cc1 (stereo not drawn),inactive: -1.94%
22,O=[As](O)(c1cccs1)c1cccs1,inactive: -0.27%
23,O=P1(Nc2ccc(Br)cn2)COc2ccccc2OC1,inactive: 1.17%
24,Nc1cccc([As](=O)(O)c2ccccc2)c1,inactive: -4.37%
25,CCOC(=O)Nc1ccc([As](=O)(O)O)c(O)c1,inactive: 6.7%
